# From publication PMC12592476, “Mechanism of Arp2/3 complex branch disassembly by human Coro7” (Nature Communications, 2025)
# Biological target: F-actin (rabbit skeletal α-actin, polymerized) (rabbit, UniProt P68135 1-377)
# Experiment: co-sedimentation; Coro7 FL with F-actin in the ADP-BeF3- state (F-actin pre-incubated 15 min with 2 mM BeSO4 and 10 mM NaF, KMEI buffer with the same); 4 °C, 1 h; 278,000×g, 30 min; SDS-PAGE densitometry
# Conditions: both partners purified
binder,measurement,value
"human Coro7 full length (Coro7 FL) (natural protein, human Coro7 (coronin 7), full length: β1, β2 and CA domains; Made as an MBP fusion with a TEV site; the methods tell no cleavage of MBP for this construct; source: human Expi293F cells, purified (amylose, MonoQ)) MNRFRVSKFRHTEARPPRRESWISDIRAGTAPSCRNHIKSSCSLIAFNSDRPGVLGIVPLQGQGEDKRRVAHLGCHSDLVTDLDFSPFDDFLLATGSADRTVKLWRLPGPGQALPSAPGVVLGPEDLPVEVLQFHPTSDGILVSAAGTTVKVWDAAKQQPLTELAAHGDLVQSAVWSRDGALVGTACKDKQLRIFDPRTKPRASQSTQAHENSRDSRLAWMGTWEHLVSTGFNQMREREVKLWDTRFFSSALASLTLDTSLGCLVPLLDPDSGLLVLAGKGERQLYCYEVVPQQPALSPVTQCVLESVLRGAALVPRQALAVMSCEVLRVLQLSDTAIVPIGYHVPRKAVEFHEDLFPDTAGCVPATDPHSWWAGDNQQVQKVSLNPACRPHPSFTSCLVPPAEPLPDTAQPAVMETPVGDADASEGFSSPPSSLTSPSTPSSLGPSLSSTSGIGTSPSLRSLQSLLGPSSKFRHAQGTVLHRDSHITNLKGLNLTTPGESDGFCANKLRVAVPLLSSGGQVAVLELRKPGRLPDTALPTLQNGAAVTDLAWDPFDPHRLAVAGEDARIRLWRVPAEGLEEVLTTPETVLTGHTEKICSLRFHPLAANVLASSSYDLTVRIWDLQAGADRLKLQGHQDQIFSLAWSPDGQQLATVCKDGRVRVYRPRSGPEPLQEGPGPKGGRGARIVWVCDGRCLLVSGFDSQSERQLLLYEAEALAGGPLAVLGLDVAPSTLLPSYDPDTGLVLLTGKGDTRVFLYELLPESPFFLECNSFTSPDPHKGLVLLPKTECDVREVELMRCLRLRQSSLEPVAFRLPRVRKEFFQDDVFPDTAVIWEPVLSAEAWLQGANGQPWLLSLQPPDMSPVSQAPREAPARRAPSSAQYLEEKSDQQKKEELLNAMVAKLGNREDPLPQDSFEGVDEDEWD",fold higher affinity for F-actin in the ADP state than in the ADP-BeF3- state,~3.5 fold
